# Reported vapor pressure values for industrial, environmental and drug-like chemicals

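OPERA's authors assembled the values from existing databases and did not measure them anew. A listed value is a point estimate from one report or more. Method, purity and exact conditions of the single measurements are not given. The measured form (salt, isomer or mixture) is not always the one drawn. Some upstream entries may be estimates or bounds without being marked so.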

Vapor pressure is log10 of mmHg; the set covers 15 to 30 °C, mostly 20 to 25 °C.

- Cl.O=C(O)C1CCNCC1: log vapor pressure -8.862 (log10 mmHg)
- Clc1cccc2cccc(Cl)c12: log vapor pressure -2.824 (log10 mmHg)
- CCNc1cc2[o+]c3cc(NCC)c(C)cc3c(-c3ccccc3C(=O)OCC)c2cc1C.[Cl-]: log vapor pressure -12.98 (log10 mmHg)
- FC(F)(F)C(F)(I)C(F)(F)F: log vapor pressure 2.566 (log10 mmHg)
- O=C([O-])CN(CCO)CCO.[Na+]: log vapor pressure -3.655 (log10 mmHg)
- FC(F)(F)C1(F)C(F)(F)C(F)(F)C(F)(F)C(F)(C(F)(F)F)C1(F)F (stereo not drawn): log vapor pressure 1.549 (log10 mmHg)
- CCN(C(C)C)C(C)C: log vapor pressure 1.103 (log10 mmHg)
- CC(O)CN(CCO)CCO (stereo not drawn): log vapor pressure -4.201 (log10 mmHg)
- CCO[Si](C)(CCCN([Si](C)(C)C)[Si](C)(C)C)OCC: log vapor pressure -2.438 (log10 mmHg)
- CN(CCCN)CCCN: log vapor pressure -1.523 (log10 mmHg)
- Cc1c(N)cccc1Cl: log vapor pressure -1.648 (log10 mmHg)
- CC(C)(c1ccc(Oc2ccc(N)cc2)cc1)c1ccc(Oc2ccc(N)cc2)cc1: log vapor pressure -9.772 (log10 mmHg)
- CCCCCCCC/C=C\CCCCCCCC(=O)N(CCO)CCO: log vapor pressure -6.212 (log10 mmHg)
- C/C=C/C(C)(C)C: log vapor pressure 2.045 (log10 mmHg)
- COc1ccc(Cl)c(Cl)c1Cl: log vapor pressure -2.706 (log10 mmHg)
- Clc1cc(Cl)c(Cl)c(-c2ccccc2Cl)c1: log vapor pressure -3.866 (log10 mmHg)
- Cc1cccc(Cc2ccccc2)c1Cc1ccccc1: log vapor pressure -5.018 (log10 mmHg)
- C[C@@H]1CNC[C@@H](C)O1 (relative stereo): log vapor pressure 0.464 (log10 mmHg)
- C=C(C)C(=O)OCCC: log vapor pressure 0.805 (log10 mmHg)
- OCC(CO)(CO)CO: log vapor pressure -7.097 (log10 mmHg)
- CCCCCCCCN(C)C: log vapor pressure -0.108 (log10 mmHg)
- C#CC(C)O (racemic): log vapor pressure 0.916 (log10 mmHg)
- CCO[SiH](OCC)OCC: log vapor pressure 0.839 (log10 mmHg)
- Clc1ccc2nc(Cl)oc2c1: log vapor pressure -0.426 (log10 mmHg)
- CCCCCCCCCCCCCCCCCCOC(=O)CCSCCC(=O)OCCCCCCCCCCCCCCCCCC: log vapor pressure -7.309 (log10 mmHg)
- ClCCC[Si](Cl)(Cl)Cl: log vapor pressure -0.112 (log10 mmHg)
- Clc1ccc(-c2cc(Cl)cc(Cl)c2Cl)c(Cl)c1: log vapor pressure -4.245 (log10 mmHg)
- Clc1ccccc1-c1ccc(Cl)c(Cl)c1Cl: log vapor pressure -4.035 (log10 mmHg)
- CC(=O)C1(C)CC2=C(CCCC2(C)C)CC1C (stereo not drawn): log vapor pressure -2.788 (log10 mmHg)
- CCCCCC(C=O)=Cc1ccccc1: log vapor pressure -3.001 (log10 mmHg)
- CC=C1CC2C=CC1C2 (stereo not drawn): log vapor pressure 0.623 (log10 mmHg)
- O=C([O-])C(O)C(O)C(=O)[O-].[Ca+2] (stereo not drawn): log vapor pressure -6.678 (log10 mmHg)
- Clc1cccc(-c2cccc(Cl)c2Cl)c1: log vapor pressure -3.606 (log10 mmHg)
- Cc1c(Cl)cccc1[N+](=O)[O-]: log vapor pressure -1.824 (log10 mmHg)
- CC1(C)S[C@@H]2[C@H](NC(=O)[C@H](N)c3ccc(O)cc3)C(=O)N2[C@H]1C(=O)O: log vapor pressure -11.68 (log10 mmHg)

6 of these entries, quoted again:

- CC(=O)C1(C)CC2=C(CCCC2(C)C)CC1C (stereo not drawn): log vapor pressure -2.788 (log10 mmHg)
- CCO[SiH](OCC)OCC: log vapor pressure 0.839 (log10 mmHg)
- CC=C1CC2C=CC1C2 (stereo not drawn): log vapor pressure 0.623 (log10 mmHg)
- Clc1ccc(-c2cc(Cl)cc(Cl)c2Cl)c(Cl)c1: log vapor pressure -4.245 (log10 mmHg)
- CN(CCCN)CCCN: log vapor pressure -1.523 (log10 mmHg)
- ClCCC[Si](Cl)(Cl)Cl: log vapor pressure -0.112 (log10 mmHg)

Values as listed in the OPERA 2.9 repository of K. Mansouri.